# Source: ChEMBL document CHEMBL4007454 (J Med Chem, 2017)
# Chains of the proteins cited; added tags and fusions are not shown.
# UniProt Q5S007, whole entry G2019S: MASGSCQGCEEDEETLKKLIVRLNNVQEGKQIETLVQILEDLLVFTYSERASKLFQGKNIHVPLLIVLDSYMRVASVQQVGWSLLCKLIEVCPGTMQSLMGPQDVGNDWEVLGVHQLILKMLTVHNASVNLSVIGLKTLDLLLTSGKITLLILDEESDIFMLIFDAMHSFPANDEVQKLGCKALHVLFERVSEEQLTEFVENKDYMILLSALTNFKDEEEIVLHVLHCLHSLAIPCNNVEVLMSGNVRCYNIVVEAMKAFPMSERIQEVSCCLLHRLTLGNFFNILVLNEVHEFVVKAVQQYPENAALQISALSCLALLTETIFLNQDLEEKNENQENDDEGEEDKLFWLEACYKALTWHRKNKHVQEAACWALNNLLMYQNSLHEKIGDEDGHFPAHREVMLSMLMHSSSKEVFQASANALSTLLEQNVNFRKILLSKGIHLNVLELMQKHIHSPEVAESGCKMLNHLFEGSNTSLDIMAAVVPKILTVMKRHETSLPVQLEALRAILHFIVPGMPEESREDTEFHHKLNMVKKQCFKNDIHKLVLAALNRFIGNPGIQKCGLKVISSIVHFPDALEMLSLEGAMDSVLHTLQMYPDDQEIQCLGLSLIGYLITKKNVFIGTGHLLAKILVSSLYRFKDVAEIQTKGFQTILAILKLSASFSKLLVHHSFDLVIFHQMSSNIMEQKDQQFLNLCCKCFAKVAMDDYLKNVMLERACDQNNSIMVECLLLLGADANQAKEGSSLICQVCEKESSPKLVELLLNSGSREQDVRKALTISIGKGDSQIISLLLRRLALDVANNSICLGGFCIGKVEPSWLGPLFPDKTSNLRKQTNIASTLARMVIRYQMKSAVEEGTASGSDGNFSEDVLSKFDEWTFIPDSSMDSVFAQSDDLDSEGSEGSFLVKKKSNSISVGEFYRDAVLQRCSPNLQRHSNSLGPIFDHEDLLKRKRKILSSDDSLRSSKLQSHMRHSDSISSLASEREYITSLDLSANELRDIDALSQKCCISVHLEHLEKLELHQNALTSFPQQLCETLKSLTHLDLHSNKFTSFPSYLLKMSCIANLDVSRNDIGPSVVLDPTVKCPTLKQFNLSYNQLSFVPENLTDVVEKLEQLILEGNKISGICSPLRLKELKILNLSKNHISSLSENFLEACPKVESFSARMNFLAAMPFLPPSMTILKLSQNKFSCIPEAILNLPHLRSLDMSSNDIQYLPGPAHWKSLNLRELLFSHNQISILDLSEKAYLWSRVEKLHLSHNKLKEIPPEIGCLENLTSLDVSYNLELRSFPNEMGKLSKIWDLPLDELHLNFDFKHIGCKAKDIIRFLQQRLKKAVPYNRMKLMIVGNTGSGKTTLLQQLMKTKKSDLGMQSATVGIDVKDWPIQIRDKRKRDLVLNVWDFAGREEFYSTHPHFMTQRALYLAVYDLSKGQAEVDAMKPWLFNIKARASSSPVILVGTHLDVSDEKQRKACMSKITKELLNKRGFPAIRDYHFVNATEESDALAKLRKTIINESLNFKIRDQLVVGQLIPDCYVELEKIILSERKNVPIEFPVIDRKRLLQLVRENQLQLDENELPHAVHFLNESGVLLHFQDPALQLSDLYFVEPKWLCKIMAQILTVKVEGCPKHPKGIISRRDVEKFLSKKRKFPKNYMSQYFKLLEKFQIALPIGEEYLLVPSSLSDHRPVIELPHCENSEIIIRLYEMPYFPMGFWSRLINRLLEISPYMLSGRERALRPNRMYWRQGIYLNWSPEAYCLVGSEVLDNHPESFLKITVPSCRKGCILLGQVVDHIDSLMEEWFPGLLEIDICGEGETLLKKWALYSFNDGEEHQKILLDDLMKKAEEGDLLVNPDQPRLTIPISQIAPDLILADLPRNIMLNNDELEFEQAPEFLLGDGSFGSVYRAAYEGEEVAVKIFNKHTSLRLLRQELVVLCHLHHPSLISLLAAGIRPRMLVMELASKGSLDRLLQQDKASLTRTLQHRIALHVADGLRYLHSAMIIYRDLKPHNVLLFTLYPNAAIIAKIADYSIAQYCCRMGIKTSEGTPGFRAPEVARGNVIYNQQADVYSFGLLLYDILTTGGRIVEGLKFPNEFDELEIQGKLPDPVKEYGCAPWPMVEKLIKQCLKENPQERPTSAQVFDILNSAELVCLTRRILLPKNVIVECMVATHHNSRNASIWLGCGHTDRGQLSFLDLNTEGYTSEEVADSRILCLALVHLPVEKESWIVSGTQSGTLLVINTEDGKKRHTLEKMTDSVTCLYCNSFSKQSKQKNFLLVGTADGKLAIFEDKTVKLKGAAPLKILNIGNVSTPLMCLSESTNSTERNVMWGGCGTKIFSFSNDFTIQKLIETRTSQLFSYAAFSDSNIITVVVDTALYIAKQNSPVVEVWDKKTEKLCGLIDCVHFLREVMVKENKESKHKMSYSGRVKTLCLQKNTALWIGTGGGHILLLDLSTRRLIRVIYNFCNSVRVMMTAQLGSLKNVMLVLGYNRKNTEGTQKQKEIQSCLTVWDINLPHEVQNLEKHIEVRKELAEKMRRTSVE
# Molecular target: Leucine-rich repeat serine/threonine-protein kinase 2 (Homo sapiens, UniProt Q5S007, G2019S)
# Test: Inhibition of recombinant human GST-tagged LRRK2 (970 to 2527 residues) G2019S mutant expressed in baculovirus using fluorescein-ERM as substrate preincubated for 30 mins followed by substrate addition measured after 1 hr in presence of 5 mM ATP by TR-FRET assay
smiles,measurement,value
CC1(Oc2ccc3[nH]nc(-c4cc(N5CCOCC5)ncn4)c3c2)CC1,IC50,10 nM
